Results on one compound are retold here after patent publication US8912226B2 (priority 2012, dated 2014).

Like-named read-outs stand apart in the source and are kept apart here.

Experiment [1] relates to male albino rats (Sprague Dawley). Conditions: alone, mean ± SEM, n = 10.
In another experiment the test system is rat. As to the kind of experiment: Randall Selitto test in rats (Carrageenin-induced inflammatory pain). In kind it is in vivo. The note with it: for ED50: (95% CI).

With `CN(C)[C@]1(c2ccccc2)CC[C@]2(CC1)OCCc1c3cc(F)ccc3[nH]c12`, the “% MPE (Maximum possible effect)” value was 12.2 ± 2.69 % MPE in experiment [1] (0.0046 mg/kg i.v., 30 min); 10.6 ± 3.51 % MPE in experiment [1] (0.0046 mg/kg i.v., 60 min); 2.88 ± 2.27 % MPE in experiment [1] (0.0046 mg/kg i.v., 90 min); 43.2 ± 2.61 % MPE in experiment [1] (0.01 mg/kg i.v., 30 min); 34.1 ± 4.88 % MPE in experiment [1] (0.01 mg/kg i.v., 60 min); 7.71 ± 2.23 % MPE in experiment [1] (0.01 mg/kg i.v., 90 min). In the experiment on rat (applied alone (first ingredient i.v., second ingredient i.p.)), the “timepoint of peak effect” value is 15 min p. appl. In addition, the ED50 is recorded as 3.38 (3.01-3.74) μg/kg with rat (applied alone i.v., 15 min p. appl.; series a) (Indometacin)) and 3.31 (2.85-3.75) μg/kg in the experiment on rat (applied alone i.v., 15 min p. appl.; series b) (Diclofenac sodium)).
